In paper PMC4582009 (Bioorganic & medicinal chemistry, 2015):
Read-outs that look alike come from different tables or passages of the source.

Amino acid sequences for entries named in this document (tags omitted). A change or cut given only in a name is not applied to a line headed by its entry.
UniProt P41145: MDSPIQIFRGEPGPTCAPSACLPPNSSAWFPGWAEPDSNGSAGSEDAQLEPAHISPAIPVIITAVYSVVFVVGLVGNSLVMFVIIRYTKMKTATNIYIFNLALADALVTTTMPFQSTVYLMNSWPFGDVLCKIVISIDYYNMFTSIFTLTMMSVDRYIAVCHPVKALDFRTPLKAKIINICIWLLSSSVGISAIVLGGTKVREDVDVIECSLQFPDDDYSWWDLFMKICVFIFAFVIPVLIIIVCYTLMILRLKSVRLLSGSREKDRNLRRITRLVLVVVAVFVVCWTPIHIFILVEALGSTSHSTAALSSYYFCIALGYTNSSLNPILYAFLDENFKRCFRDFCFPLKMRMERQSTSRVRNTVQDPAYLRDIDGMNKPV
UniProt P35372, whole entry: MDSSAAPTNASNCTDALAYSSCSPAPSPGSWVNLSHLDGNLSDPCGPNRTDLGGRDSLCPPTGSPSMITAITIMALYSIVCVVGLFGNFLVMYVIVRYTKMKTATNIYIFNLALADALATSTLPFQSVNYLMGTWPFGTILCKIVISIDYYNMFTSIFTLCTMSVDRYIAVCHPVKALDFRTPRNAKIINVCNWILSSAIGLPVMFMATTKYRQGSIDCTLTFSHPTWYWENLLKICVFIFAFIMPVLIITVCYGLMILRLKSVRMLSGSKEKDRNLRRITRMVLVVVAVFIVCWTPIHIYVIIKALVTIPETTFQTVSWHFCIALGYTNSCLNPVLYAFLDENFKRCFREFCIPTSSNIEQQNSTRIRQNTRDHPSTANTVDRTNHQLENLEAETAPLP

How the values were obtained:
[1] = target: cloned human κ opioid receptor (Homo sapiens, UniProt P41145); assay: biochemical; type: biochemical
[2] = target: cloned human δ opioid receptor (Homo sapiens, UniProt P41143); assay: biochemical
[3] = target: cloned human μ opioid receptor (Homo sapiens, UniProt P35372); assay: biochemical
[4] = read-out: Ke κ, U69,593, inhibition of agonist-stimulated [35S]GTPγS binding, mean ±SEM of at least three experiments
[5] = read-out: Ke δ, DPDPE, inhibition of agonist-stimulated [35S]GTPγS binding, mean ±SEM of at least three experiments

CC(C)[C@@H](CN1CC[C@@](C)(c2ccccc2)[C@@H](C)C1)NC(=O)[C@H]1Cc2ccc(O)cc2CN1 [Compound 3a, reference compound]
δ/κ ([1]; ratio of Ke values, selectivity for κ relative to δ): 18,400 | Kb [1, 4]: 0.024 nM | Kb [2, 5]: 442 nM

CC(C)[C@@H](CN1CC[C@@](C)(c2cccc(F)c2)[C@@H](C)C1)NC(=O)[C@H]1Cc2ccc(O)cc2CN1 [Compound 3b, reference compound]
Kb [1, 4]: 0.01 nM | Kb [2, 5]: 249 nM

CC(C)[C@@H](CN1CCC(C)(c2cccc(O)c2)CC1)NC(=O)[C@H]1Cc2ccc(O)cc2CN1 [Compound 4a, (3R)-7-Hydoxy-N-[(1S)-1-{[4-(3-hydroxyphenyl)-4-methylpiperidin-1-yl]methyl}-2-methylpropyl]-1,2,3,4-tetrahydroisoquinoline-3-carboxamide]
functional profile in the [35S]GTPγS test (opioid receptors): pure opioid receptor antagonist | agonist activity in the [35S]GTPγS binding assay (opioid receptors; at 10 μM): no agonist activity

CC(C)[C@@H](CN1CCC(C)(c2cccc(F)c2)CC1)NC(=O)[C@H]1Cc2ccc(O)cc2CN1 [Compound 4b, (3R)-N-[(1S)-1-{[4-(3-fluorophenyl)-4-methylpiperidin-1-yl]methyl}-2-methylpropyl]-7-hydroxy-1,2,3,4-tetrahydroisoquinoline-3-carboxamide]
Kb [1]: 0.18 ± 0.04 nM | fold less potent than 3b as a κ opioid antagonist ([1]; ratio of κ Ke values vs 3b): 18 fold | Kb [3]: 38 ± 6.4 nM | Kb [2]: 1480 ± 350 nM

CC(C)[C@@H](CN1CCC(c2ccccc2)CC1)NC(=O)[C@H]1Cc2ccc(O)cc2CN1 [Compound 4e, (3R)-7-Hydroxy-N-{(1S)-2-methyl-1-[(4-phenylpiperidin-1-yl]methyl]propyl}-1,2,3,4-tetrahydroisoquinoline-3-carboxamide]
Kb [3]: 3.96 ± 1.1 nM

CC(C)[C@@H](CN1CCC(c2cccc(F)c2)CC1)NC(=O)[C@H]1Cc2ccc(O)cc2CN1 [Compound 4f, (3R)-N-[(1S)-1-{[4-(3-Fluorophenyl)piperidin-1-yl]methyl}-2-methylpropyl]-7-hydroxy-1,2,3,4-tetrahydroisoquinoline-3-carboxamide]
Kb [1]: 0.023 ± 0.01 nM | Kb [3]: 3.55 ± 1.1 nM | Kb [2]: 128 ± 36 nM
